The source of these data is paper PMC3961306, “Comparison of the Cancer Gene Targeting and Biochemical Selectivities of All Targeted Kinase Inhibitors Approved for Clinical Use” (PLoS ONE, 2014).

Amino acid sequences for entries named in this document (tags omitted). Residues count along the entry.
UniProt Q14012, whole entry, stated change not applied: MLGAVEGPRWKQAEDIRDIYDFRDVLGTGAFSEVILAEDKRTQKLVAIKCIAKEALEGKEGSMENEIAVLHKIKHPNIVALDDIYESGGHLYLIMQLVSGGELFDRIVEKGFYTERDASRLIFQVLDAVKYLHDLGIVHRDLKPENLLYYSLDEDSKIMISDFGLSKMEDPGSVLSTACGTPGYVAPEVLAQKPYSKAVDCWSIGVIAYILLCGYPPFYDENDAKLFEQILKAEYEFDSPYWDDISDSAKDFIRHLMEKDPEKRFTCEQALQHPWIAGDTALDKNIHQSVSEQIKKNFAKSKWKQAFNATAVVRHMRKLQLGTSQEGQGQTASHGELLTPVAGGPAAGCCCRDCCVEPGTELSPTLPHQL
UniProt Q96SB4, whole entry, stated change not applied: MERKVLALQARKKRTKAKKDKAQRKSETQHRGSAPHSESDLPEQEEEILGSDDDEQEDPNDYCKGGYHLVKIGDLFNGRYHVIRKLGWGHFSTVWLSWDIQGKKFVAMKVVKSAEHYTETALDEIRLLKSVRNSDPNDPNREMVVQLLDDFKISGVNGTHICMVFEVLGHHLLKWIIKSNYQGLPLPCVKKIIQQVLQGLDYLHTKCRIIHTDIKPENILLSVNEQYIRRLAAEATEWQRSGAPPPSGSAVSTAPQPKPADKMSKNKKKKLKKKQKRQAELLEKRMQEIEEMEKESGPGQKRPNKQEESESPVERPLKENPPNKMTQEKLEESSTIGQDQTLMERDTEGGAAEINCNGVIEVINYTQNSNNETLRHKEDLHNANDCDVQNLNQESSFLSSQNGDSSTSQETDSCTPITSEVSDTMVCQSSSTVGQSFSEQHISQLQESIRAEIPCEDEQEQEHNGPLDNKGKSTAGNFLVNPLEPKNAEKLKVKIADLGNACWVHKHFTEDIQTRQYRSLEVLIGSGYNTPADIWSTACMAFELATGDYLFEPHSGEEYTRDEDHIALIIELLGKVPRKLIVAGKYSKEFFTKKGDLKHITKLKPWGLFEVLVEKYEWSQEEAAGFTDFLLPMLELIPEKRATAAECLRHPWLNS
UniProt Q05397, whole entry, stated change not applied: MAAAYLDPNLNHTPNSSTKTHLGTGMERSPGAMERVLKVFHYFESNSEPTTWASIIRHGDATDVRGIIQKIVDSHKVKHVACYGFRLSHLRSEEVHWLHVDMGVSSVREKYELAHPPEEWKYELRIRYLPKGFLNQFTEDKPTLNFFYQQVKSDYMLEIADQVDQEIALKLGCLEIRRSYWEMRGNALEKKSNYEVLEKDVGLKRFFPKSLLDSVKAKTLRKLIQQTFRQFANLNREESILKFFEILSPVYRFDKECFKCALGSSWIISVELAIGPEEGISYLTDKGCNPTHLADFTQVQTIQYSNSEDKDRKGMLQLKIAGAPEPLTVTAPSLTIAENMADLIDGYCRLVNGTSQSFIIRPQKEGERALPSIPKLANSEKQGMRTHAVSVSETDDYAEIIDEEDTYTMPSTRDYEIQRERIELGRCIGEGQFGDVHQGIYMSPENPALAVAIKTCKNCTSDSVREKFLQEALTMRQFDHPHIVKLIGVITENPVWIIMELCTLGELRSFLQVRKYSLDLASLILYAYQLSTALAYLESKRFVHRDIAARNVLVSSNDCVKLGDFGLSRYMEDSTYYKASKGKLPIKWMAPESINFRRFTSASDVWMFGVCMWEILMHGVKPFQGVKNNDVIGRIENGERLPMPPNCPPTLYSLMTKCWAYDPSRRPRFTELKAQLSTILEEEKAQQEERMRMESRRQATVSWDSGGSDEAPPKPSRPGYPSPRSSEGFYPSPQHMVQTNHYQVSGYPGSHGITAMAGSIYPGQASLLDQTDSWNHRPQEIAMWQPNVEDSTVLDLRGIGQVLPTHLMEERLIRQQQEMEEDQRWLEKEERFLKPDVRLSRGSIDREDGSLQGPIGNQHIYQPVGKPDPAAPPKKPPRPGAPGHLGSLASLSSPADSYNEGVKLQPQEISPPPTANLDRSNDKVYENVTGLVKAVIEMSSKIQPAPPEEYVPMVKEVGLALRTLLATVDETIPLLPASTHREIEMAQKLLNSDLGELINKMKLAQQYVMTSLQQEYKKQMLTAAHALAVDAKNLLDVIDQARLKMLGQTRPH
UniProt Q92630, whole entry, stated change not applied: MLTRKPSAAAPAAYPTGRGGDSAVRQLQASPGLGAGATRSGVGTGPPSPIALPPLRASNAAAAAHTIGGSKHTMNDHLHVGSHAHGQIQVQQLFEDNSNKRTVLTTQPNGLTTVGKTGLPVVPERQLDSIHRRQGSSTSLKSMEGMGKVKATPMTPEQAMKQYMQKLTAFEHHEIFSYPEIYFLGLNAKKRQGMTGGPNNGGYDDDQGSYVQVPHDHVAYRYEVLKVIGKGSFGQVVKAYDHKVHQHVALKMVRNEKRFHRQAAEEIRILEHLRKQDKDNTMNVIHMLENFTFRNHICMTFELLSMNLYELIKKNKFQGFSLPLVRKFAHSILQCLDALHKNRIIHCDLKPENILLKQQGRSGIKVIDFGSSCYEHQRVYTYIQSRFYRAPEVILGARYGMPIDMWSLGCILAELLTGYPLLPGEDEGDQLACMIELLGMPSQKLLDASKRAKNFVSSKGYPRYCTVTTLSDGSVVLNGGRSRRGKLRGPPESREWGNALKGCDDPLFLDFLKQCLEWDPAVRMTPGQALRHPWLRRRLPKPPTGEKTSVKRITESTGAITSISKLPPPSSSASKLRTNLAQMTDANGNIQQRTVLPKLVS
UniProt P54760, 16-987, stated change not applied: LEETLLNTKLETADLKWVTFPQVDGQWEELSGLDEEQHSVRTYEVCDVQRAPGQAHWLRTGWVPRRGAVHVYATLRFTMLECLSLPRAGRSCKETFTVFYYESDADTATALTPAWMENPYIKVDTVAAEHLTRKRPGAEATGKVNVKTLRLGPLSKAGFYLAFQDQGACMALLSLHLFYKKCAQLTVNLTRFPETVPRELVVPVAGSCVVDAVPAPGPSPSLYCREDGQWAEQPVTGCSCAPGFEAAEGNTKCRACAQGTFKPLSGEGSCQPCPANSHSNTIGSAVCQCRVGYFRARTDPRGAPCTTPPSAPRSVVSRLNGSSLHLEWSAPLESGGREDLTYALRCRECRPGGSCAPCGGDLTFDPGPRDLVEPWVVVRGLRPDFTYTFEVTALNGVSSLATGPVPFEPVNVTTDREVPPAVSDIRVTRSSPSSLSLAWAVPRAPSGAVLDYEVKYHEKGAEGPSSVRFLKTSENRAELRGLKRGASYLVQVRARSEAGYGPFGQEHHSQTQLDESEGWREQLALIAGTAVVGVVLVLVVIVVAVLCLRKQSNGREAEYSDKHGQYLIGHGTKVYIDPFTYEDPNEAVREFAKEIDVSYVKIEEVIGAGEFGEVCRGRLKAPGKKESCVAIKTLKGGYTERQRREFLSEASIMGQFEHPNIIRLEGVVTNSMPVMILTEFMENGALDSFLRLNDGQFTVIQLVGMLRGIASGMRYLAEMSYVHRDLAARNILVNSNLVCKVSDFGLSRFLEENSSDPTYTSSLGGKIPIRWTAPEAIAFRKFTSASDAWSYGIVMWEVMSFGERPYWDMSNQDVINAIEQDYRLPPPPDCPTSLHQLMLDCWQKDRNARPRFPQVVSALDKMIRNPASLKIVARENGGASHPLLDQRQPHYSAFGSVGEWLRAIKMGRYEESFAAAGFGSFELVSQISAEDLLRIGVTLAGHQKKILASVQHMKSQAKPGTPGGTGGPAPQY
UniProt Q9Y2U5, whole entry, stated change not applied: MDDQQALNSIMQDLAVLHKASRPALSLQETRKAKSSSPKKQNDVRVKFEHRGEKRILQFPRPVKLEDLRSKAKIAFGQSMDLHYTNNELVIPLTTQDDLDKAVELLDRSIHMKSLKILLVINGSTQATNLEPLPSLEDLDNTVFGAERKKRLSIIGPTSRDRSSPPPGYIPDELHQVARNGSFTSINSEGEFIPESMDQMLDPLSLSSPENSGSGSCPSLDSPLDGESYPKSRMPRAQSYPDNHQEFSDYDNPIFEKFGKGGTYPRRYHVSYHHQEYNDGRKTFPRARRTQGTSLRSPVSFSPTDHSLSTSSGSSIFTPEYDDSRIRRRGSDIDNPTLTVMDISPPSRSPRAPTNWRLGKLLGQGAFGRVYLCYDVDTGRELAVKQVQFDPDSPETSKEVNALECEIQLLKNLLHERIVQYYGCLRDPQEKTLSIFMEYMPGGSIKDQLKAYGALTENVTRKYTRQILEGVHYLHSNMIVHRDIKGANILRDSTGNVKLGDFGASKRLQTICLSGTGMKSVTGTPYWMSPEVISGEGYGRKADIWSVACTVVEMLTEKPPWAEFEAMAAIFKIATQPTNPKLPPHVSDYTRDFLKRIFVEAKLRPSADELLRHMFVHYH
UniProt O94804, whole entry, stated change not applied: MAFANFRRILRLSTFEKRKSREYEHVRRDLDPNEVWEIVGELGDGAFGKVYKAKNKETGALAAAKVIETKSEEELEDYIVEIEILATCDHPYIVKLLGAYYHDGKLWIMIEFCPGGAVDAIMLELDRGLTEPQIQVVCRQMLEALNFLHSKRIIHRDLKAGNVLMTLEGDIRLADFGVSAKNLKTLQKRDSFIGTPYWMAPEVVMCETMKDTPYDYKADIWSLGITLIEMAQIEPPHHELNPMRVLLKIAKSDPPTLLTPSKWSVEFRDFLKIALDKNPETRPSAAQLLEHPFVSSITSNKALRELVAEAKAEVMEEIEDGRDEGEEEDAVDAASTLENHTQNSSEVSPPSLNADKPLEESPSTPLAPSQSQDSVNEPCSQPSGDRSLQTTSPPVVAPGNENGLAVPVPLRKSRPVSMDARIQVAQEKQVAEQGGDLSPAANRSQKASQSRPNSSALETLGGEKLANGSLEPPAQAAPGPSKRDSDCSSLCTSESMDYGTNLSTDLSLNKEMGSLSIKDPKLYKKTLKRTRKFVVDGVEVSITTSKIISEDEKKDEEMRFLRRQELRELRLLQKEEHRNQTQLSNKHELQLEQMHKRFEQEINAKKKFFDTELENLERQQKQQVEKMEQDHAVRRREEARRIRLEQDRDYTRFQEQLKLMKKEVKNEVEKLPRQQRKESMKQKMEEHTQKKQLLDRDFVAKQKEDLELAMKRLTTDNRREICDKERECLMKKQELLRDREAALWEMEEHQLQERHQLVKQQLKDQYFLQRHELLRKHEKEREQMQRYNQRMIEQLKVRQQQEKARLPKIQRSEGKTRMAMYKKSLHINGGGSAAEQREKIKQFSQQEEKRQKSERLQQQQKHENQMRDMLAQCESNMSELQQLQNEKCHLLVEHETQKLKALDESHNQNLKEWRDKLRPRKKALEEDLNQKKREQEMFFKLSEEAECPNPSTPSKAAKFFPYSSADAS
UniProt O15530, whole entry, stated change not applied: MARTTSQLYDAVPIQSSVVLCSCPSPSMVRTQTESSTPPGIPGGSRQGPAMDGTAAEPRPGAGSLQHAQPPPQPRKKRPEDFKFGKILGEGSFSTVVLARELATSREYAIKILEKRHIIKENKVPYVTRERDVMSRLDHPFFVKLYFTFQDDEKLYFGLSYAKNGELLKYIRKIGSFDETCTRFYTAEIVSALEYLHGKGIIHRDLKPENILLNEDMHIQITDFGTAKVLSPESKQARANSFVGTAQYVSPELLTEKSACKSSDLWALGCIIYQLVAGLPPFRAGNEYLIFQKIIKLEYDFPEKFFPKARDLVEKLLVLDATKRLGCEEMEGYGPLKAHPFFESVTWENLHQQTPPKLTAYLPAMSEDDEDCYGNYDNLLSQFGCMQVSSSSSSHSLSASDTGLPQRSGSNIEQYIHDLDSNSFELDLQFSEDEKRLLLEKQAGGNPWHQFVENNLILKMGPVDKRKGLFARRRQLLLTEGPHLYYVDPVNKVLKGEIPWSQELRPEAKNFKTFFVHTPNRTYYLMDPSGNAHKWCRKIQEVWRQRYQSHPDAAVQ
UniProt P05771, whole entry, stated change not applied: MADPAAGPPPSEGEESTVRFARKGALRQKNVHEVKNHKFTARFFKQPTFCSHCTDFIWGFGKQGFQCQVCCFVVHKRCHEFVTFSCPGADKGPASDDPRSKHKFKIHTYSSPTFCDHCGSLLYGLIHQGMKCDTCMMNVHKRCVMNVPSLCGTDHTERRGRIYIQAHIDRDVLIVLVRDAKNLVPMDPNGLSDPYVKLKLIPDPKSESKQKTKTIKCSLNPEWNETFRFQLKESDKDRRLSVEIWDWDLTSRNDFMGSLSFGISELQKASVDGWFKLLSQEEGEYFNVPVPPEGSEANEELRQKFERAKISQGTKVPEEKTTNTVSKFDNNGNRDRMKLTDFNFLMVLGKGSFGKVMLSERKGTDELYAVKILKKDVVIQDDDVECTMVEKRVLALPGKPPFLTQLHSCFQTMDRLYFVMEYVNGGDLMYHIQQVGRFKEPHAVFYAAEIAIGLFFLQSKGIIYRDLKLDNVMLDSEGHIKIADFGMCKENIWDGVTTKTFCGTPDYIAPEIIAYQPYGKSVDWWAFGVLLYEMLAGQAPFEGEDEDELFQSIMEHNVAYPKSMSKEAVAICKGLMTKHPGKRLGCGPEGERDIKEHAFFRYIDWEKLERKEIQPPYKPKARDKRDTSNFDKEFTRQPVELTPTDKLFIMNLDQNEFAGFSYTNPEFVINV

Holding throughout (assay): Kinase profiling in a biochemical assay panel (mobility shift assays and ELISA), %-inhibition at 1 μM; selectivity entropy
Conditions in all cases: 1 µM

Test [1] concerns the target panel of more than 300 wild-type and mutant kinases (313 kinase panel) (Homo sapiens, UniProt Q14012).
For test [2], the target named is panel of more than 300 wild-type and mutant kinases (313 kinase panel) (Homo sapiens, UniProt P80192).
The target in test [3] is panel of more than 300 wild-type and mutant kinases (313 kinase panel) (Homo sapiens, UniProt Q96SB4).
Test [4] addresses panel of more than 300 wild-type and mutant kinases (313 kinase panel) (Homo sapiens, UniProt P51451).
Test [5] addresses panel of more than 300 wild-type and mutant kinases (313 kinase panel) (Homo sapiens, UniProt O96013).
Test [6] deals with panel of more than 300 wild-type and mutant kinases (313 kinase panel) (Homo sapiens, UniProt Q05397).
Test [7] concerns the target panel of more than 300 wild-type and mutant kinases (313 kinase panel) (Homo sapiens, UniProt Q92630).
In test [8] the target is panel of more than 300 wild-type and mutant kinases (313 kinase panel) (Homo sapiens, UniProt P54760).
Test [9] deals with panel of more than 300 wild-type and mutant kinases (313 kinase panel) (Homo sapiens, UniProt Q9Y2U5).
Test [10] has as its target panel of more than 300 wild-type and mutant kinases (313 kinase panel) (Homo sapiens, UniProt O94804).
Test [11] addresses panel of more than 300 wild-type and mutant kinases (313 kinase panel) (Homo sapiens, UniProt P00519, T315I).
The target of test [12] is panel of more than 300 wild-type and mutant kinases (313 kinase panel) (Homo sapiens, UniProt P45984).
Test [13] concerns the target panel of more than 300 wild-type and mutant kinases (313 kinase panel) (Homo sapiens, UniProt Q16832).
The target of test [14] is panel of more than 300 wild-type and mutant kinases (313 kinase panel) (Homo sapiens, UniProt P08631).
The target in test [15] is panel of more than 300 wild-type and mutant kinases (313 kinase panel) (Homo sapiens, UniProt P22455, V550E).
Test [16] has as its target panel of more than 300 wild-type and mutant kinases (313 kinase panel) (Homo sapiens, UniProt P09769).
For test [17], the target named is panel of more than 300 wild-type and mutant kinases (313 kinase panel) (Homo sapiens, UniProt Q15303).
The target in test [18] is panel of more than 300 wild-type and mutant kinases (313 kinase panel) (Homo sapiens, UniProt P22455, N535K).
Test [19] addresses panel of more than 300 wild-type and mutant kinases (313 kinase panel) (Homo sapiens, UniProt O15530).
Test [20] addresses panel of more than 300 wild-type and mutant kinases (313 kinase panel) (Homo sapiens, UniProt P48729).
Test [21] has as its target panel of more than 300 wild-type and mutant kinases (313 kinase panel) (Homo sapiens, UniProt P05771).
The target of test [22] is panel of more than 300 wild-type and mutant kinases (313 kinase panel) (Homo sapiens, UniProt Q96GD4).
Test [23] concerns the target panel of more than 300 wild-type and mutant kinases (313 kinase panel) (Homo sapiens, UniProt Q13163).

For `COc1cc2ncnc(Nc3ccc(F)c(Cl)c3)c2cc1OCCCN1CCOCC1` [gefitinib], the “%-inhibition, CaMK1α” value in test [1] stood at 2%. The “%-inhibition of MLK1” value in test [2] stood at 9%. Also, the “%-inhibition of SRPK1” value in [3] is -3%. Further, the “%-inhibition, BLK” value in test [4] came to 43%. Also, the “%-inhibition of PAK4” value in test [5] is on record as -6%. The “%-inhibition of FAK” value in [6] is recorded as 28%. In addition, the “%-inhibition of DYRK2” value in test [7] is 29%.

`C[C@@H]1CCN(C(=O)CC#N)C[C@@H]1N(C)c1ncnc2[nH]ccc12` [tofacitinib]: in test [8], the “%-inhibition of EPHB4” value was -2.47%. Also, in test [9], the “%-inhibition of MAP3K2” value is reported as 6%. The “%-inhibition of LOK” value in test [10] is 2.46%. Moreover, the “%-inhibition of MLK1” value in test [2] was 2.14%. Besides, the “%-inhibition, ABL(T315I)” value in [11] was 5.45%. In addition, the “%-inhibition of JNK2” value in [12] was -3.47%. Further, the “%-inhibition of SRPK1” value in test [3] came to 2.13%. Besides, the “%-inhibition of DDR2” value in test [13] is -0.706%. In addition, the “%-inhibition of HCK” value in test [14] turned out to be 0.159%. Moreover, the “%-inhibition of PAK4” value in test [5] is -17%. In test [15], the “%-inhibition of FGFR4(V550E)” value is given as -0.834%. Also, in test [16], the “%-inhibition of FGR” value is given as -0.222%. In addition, in test [17], the “%-inhibition of HER4” value is 7%. Also, the “%-inhibition of FGFR4(N535K)” value in test [18] is 2.75%. In addition, the “%-inhibition of PDK1” value in test [19] is given as -5.71%. Moreover, the “%-inhibition, CK1α” value in [20] is listed as -10%. For the same compound, the “%-inhibition of FAK” value in test [6] is on record as -5.36%. Moreover, in [21], the “%-inhibition of PKCβ1” value is on record as 7%. Further, the “%-inhibition, AurB” value in test [22] is listed as -5.3%. Also, the “%-inhibition of DYRK2” value in [7] is reported as -8.56%. Further, in test [23], the “%-inhibition of MAP2K5” value is 0.925%.
